Results as given in PMC11859636, “Design, Synthesis, and Mechanistic Anticancer Evaluation of New Pyrimidine-Tethered Compounds” (Pharmaceuticals, 2025).

Test system: Jurkat cells
Assay: MTT assay for cytotoxicity, Jurkat cells
Assay type: cell-based, human
Conditions: IC50 for PBMC/IC50 for Jurkat cell line
Method: Dulbecco’s modified Eagle’s medium (DMEM) (Wako Pure Chemical Industries, Osaka, Japan) containing 10% fetal bovine serum (FBS) (Equitech-Bio, Kerrville, TX, USA) was used for the culture of A549 and MCF-7 human cancer cells, while RPMI 1640 (Wako Pure Chemical Industries) containing 10% FBS was used for the culture of Jurkat cells, derived from human leukemia. On the other hand, PBMCs (Precision Bioservices, Frederick, MD, USA) were incubated in RPMI 1640 supplemented with 10% human serum AB (HS) (Gemini, Woodland, CA, USA). All media also incorporated 89 μg/mL of streptomycin (Meiji Seika Pharma, Tokyo, Japan), and cells were maintained at 37 °C in a 95% air and 5% CO2 humidified chamber. The microtiter tissue culture plates (24-well and 96-well) (Iwaki, Asahi Glass Co., Chiba, Japan) were used for cancer cells (4 × 10^4 cells/mL) and PBMCs (5 × 10^5 cells/mL), respectively. Prior to drug treatment, all of these cells were incubated for 72 h. The optimal cell density for cytotoxicity testing was established in preliminary experiments. […]
The cellular reduction in MTT (Dojindo Molecular Technologies, Kumamoto, Japan) was measured as described in the literature with minor modifications. […] Absorbance was measured at 570 nm using an Infinitive M1000 microplate spectrophotometer (Tecan, Groding, Austria). […]

With `CS(=O)(=O)CCNCc1ccc(-c2ccc3ncnc(Nc4ccc(OCc5cccc(F)c5)c(Cl)c4)c3c2)o1` [Lapatinib] the “SI (Selectivity Index)” value was 8.89.
